Data taken from patent US20250177353A1 (priority 2021, published 2025).

Test: SAD phase I study: plasma pharmacokinetics of Compound 1 (Table 2)
[1] = 600 mg Fasted Micronized, single oral dose
[2] = 1050 mg Fasted Micronized, single oral dose
[3] = 1050 mg Fasted, single oral dose
[4] = 1400 mg Fasted Micronized, single oral dose

Cn1c(COc2ccc([N+](=O)[O-])cc2[N+](=O)[O-])cnc1[N+](=O)[O-]
AUCinf, Median [1]: 221 ng·h/mL | AUCinf/D, Geometric Mean [1]: 0.329 ng·h/mL/mg | AUCinf/D, Mean (SD) [1]: 0.358 (0.153) h*ng/mL/mg | AUCinf/D, Median [1]: 0.368 ng·h/mL/mg | AUClast, Geometric Mean [1]: 221 ng·h/mL | AUClast, Median [1]: 240 ng·h/mL | AUClast/D, Geometric Mean [1]: 0.368 ng·h/mL/mg | AUClast/D, Mean (SD) [1]: 0.410 (0.194) h*ng/mL/mg | AUClast/D, Median [1]: 0.399 ng·h/mL/mg | CL/F, Geometric Mean [1]: 3040 L/h | CL/F, Mean (SD) [1]: 3360 (1790) L/h | CL/F, Median [1]: 2720 L/h | Cmax, Geometric Mean [1]: 79.9 ng/mL | Cmax, Mean (SD) [1]: 90.0 (46.2) ng/mL | Cmax, Median [1]: 81.8 ng/mL | Cmax/D, Geometric Mean [1]: 0.133 ng/mL/mg | Cmax/D, Mean (SD) [1]: 0.150 (0.0770) ng/mL/mg | Cmax/D, Median [1]: 0.136 ng/mL/mg | Tlag, Median [1]: 0.250 h | Tlast, Median [1]: 10.0 h | t1/2, Geometric Mean [1]: 1.05 h | t1/2, Median [1]: 0.926 h | λz, Geometric Mean [1]: 0.660 h⁻¹ | λz, Mean (SD) [1]: 0.693 (0.217) /h | λz, Median [1]: 0.749 h⁻¹ | AUC0-24 h, Geometric Mean [2]: 437 ng·h/mL | AUC0-24 h, Median [2]: 350 ng·h/mL | AUC extrapolated, Geometric Mean [2]: 0.736% | AUC extrapolated, Mean (SD) [2]: 1.06 (0.842) % | AUC extrapolated, Median [2]: 0.894% | AUCinf, Geometric Mean [2]: 438 ng·h/mL | AUCinf, Median [2]: 352 ng·h/mL | AUCinf/D, Geometric Mean [2]: 0.417 ng·h/mL/ng | AUCinf/D, Mean (SD) [2]: 0.509 (0.428) h*ng/mL/ng | AUCinf/D, Median [2]: 0.336 ng·h/mL/ng | AUClast, Geometric Mean [2]: 434 ng·h/mL | AUClast, Median [2]: 347 ng·h/mL | AUClast/D, Geometric Mean [2]: 0.413 ng·h/mL/mg | AUClast/D, Mean (SD) [2]: 0.504 (0.423) h*ng/mL/mg | AUClast/D, Median [2]: 0.330 ng·h/mL/mg | CL/F, Geometric Mean [2]: 2400 L/h | CL/F, Mean (SD) [2]: 2710 (1150) L/h | CL/F, Median [2]: 3010 L/h | Cmax, Geometric Mean [2]: 129 ng/mL | Cmax, Median [2]: 128 ng/mL | Cmax/D, Geometric Mean [2]: 0.123 ng/mL/mg | Cmax/D, Mean (SD) [2]: 0.125 (0.0254) ng/mL/mg | Cmax/D, Median [2]: 0.122 ng/mL/mg | Tlag, Median [2]: 0.250 h | Tlast, Median [2]: 12.0 h | t1/2, Geometric Mean [2]: 1.50 h | t1/2, Median [2]: 1.31 h | λz, Geometric Mean [2]: 0.461 h⁻¹ | λz, Mean (SD) [2]: 0.519 (0.263) /h | λz, Median [2]: 0.535 h⁻¹ | AUC0-24 h, Geometric Mean [3]: 63.2 ng·h/mL | AUC0-24 h, Median [3]: 58.1 ng·h/mL | AUC extrapolated, Geometric Mean [3]: 3.87% | AUC extrapolated, Mean (SD) [3]: 4.92 (3.11) % | AUC extrapolated, Median [3]: 5.28% | AUCinf, Geometric Mean [3]: 63.7 ng·h/mL | AUCinf, Median [3]: 59.3 ng·h/mL | AUCinf/D, Geometric Mean [3]: 0.0606 ng·h/mL/ng | AUCinf/D, Mean (SD) [3]: 0.0686 (0.0392) h*ng/mL/ng | AUCinf/D, Median [3]: 0.0565 ng·h/mL/ng | AUClast, Geometric Mean [3]: 60.5 ng·h/mL | AUClast, Median [3]: 56.2 ng·h/mL | AUClast/D, Geometric Mean [3]: 0.0576 ng·h/mL/mg | AUClast/D, Mean (SD) [3]: 0.0658 (0.0394) h*ng/mL/mg | AUClast/D, Median [3]: 0.0535 ng·h/mL/mg | CL/F, Geometric Mean [3]: 16500 L/h | CL/F, Mean (SD) [3]: 18400 (8710) L/h | CL/F, Median [3]: 18100 L/h | Cmax, Geometric Mean [3]: 14.6 ng/mL | Cmax, Median [3]: 12.7 ng/mL | Cmax/D, Geometric Mean [3]: 0.0139 ng/mL/mg | Cmax/D, Mean (SD) [3]: 0.0163 (0.0115) ng/mL/mg | Cmax/D, Median [3]: 0.0121 ng/mL/mg | Tlag, Median [3]: 0.250 h | Tlast, Median [3]: 10.0 h | t1/2, Geometric Mean [3]: 1.96 h | t1/2, Median [3]: 1.62 h | λz, Geometric Mean [3]: 0.353 h⁻¹ | λz, Mean (SD) [3]: 0.390 (0.143) /h | λz, Median [3]: 0.429 h⁻¹ | AUC0-24 h, Geometric Mean [4]: 418 ng·h/mL | AUC0-24 h, Median [4]: 404 ng·h/mL | AUC extrapolated, Geometric Mean [4]: 0.525% | AUC extrapolated, Mean (SD) [4]: 0.547 (0.162) % | AUC extrapolated, Median [4]: 0.579% | AUCinf, Geometric Mean [4]: 415 ng·h/mL | AUCinf, Median [4]: 372 ng·h/mL | AUCinf/D, Geometric Mean [4]: 0.296 ng·h/mL/ng | AUCinf/D, Mean (SD) [4]: 0.306 (0.0863) h*ng/mL/ng | AUCinf/D, Median [4]: 0.265 ng·h/mL/ng | AUClast, Geometric Mean [4]: 422 ng·h/mL | AUClast, Median [4]: 421 ng·h/mL | AUClast/D, Geometric Mean [4]: 0.301 ng·h/mL/mg | AUClast/D, Mean (SD) [4]: 0.310 (0.0782) h*ng/mL/mg | AUClast/D, Median [4]: 0.300 ng·h/mL/mg | CL/F, Geometric Mean [4]: 3370 L/h | CL/F, Mean (SD) [4]: 3480 (909) L/h | CL/F, Median [4]: 3770 L/h | Cmax, Geometric Mean [4]: 136 ng/mL | Cmax, Median [4]: 147 ng/mL | Cmax/D, Geometric Mean [4]: 0.0973 ng/mL/mg | Cmax/D, Mean (SD) [4]: 0.0998 (0.0225) ng/mL/mg | Cmax/D, Median [4]: 0.105 ng/mL/mg | Tlag, Median [4]: 0.250 h | Tlast, Median [4]: 15.0 h | t1/2, Geometric Mean [4]: 1.46 h | t1/2, Median [4]: 1.42 h | λz, Geometric Mean [4]: 0.474 h⁻¹ | λz, Mean (SD) [4]: 0.548 (0.300) /h | λz, Median [4]: 0.489 h⁻¹ | median Tlag (across all dose levels 30-1050 mg, fasted): < 0.50 h | saturation of absorption (at high single doses): evidence of saturation of absorption | mean half-life (completed SAD study): 1 to 3 h
